In the assay the test system is A2780 cells. Description: Assay 2: In-Vitro Cell Proliferation Assay (A2780 cells, SRB readout, 72 hours).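 Also: viable cells counted via sulforhodamine B staining, absorbance at 570 nm, after 72 h exposure at 37 °C, DMSO 0.1% as control, media-only background subtracted.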 It counts as cell-based. Conditions: Homo sapiens, A2780, 72 h, read-out: Cell Proliferation (IC50).

As for `O=C(NCc1ccc(S(=O)(=O)N2CCN(C3COC3)CC2)cc1)c1cc2ccncc2o1` [Example 149, Furo[2,3-c]pyridine-2-carboxylic acid 4-(4-oxetan-3-yl-piperazine-lsulfonyl)-benzylamide], the IC50 was found to be 23 nM.

Source of the values: patent US10696692B2, “Amido-benzyl sulfone and sulfoxide derivates” (Forma TM, LLC, priority 2012, dated 2020).
